# Antibody variant affinities, Ab-91 heavy chain, assay 2

Reference: Engelhart et al. 2022, doi:10.1038/s41597-022-01779-4. File: FLAb, binding data.

Antigen: PDVDLGDISGINAS, a 14-residue peptide of the SARS-CoV-2 spike HR2 region.

The variants keep the light chain, the linker and the frameworks of Ab-91 (scFv order VL, a 15-residue (Gly4Ser)3 linker, VH).
VL: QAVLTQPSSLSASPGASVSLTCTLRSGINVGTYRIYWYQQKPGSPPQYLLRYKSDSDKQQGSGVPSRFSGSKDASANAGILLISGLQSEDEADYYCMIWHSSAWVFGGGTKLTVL
VH: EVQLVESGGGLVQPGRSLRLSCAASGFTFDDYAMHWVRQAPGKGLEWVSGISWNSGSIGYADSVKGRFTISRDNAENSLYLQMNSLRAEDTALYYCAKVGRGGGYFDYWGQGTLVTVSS

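The parent was found by panning a naive human phage display library on the peptide. Library AAYL51 holds single substitutions and randomly drawn double and triple substitutions in the CDRs. In AlphaSeq, yeast of one mating type display the scFv and yeast of the other type display the target. Pairs that bind mate more often; barcode pairs of the diploids are counted by sequencing. The ratio of observed to expected reads was calibrated, replicate by replicate, on BCL2-family standards whose Kd was known from biolayer interferometry. Mating was done three times.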

Positions count from residue 1 of the parent VH; Y32P puts P in place of Y. All variants listed here change Y32 of the VH, counted from its first residue. Numbers give log10(Kd / nM), so 0 is 1 nM and 3 is 1 µM. Smaller is tighter. The mean shown is taken over the replicates in which the pair was detected. An entry "no signal" has no value in the source: the pair was not observed among the diploids in any replicate. This suggests poor binding but is not conclusive. Nonspecific signal, from three strains lacking the peptide, appeared in 21% of pairings of library AAYL51, centred on 4.54 (5% of these signals below 3.26); values are not corrected for it. For each scFv, signals with the empty controls are counted beside the result.

Y32P+S52T+I58C: 5.08 (2 of 3 replicates; controls 2 of 9).
G26L+Y32R+A33M: 1.32 (3 of 3 replicates; controls 0 of 9).
Y32D+S57E+G100R: no signal (0 of 3 replicates; controls 0 of 9).
Y32E+I51P+Y105K: 5.72 (3 of 3 replicates; controls 4 of 9).
Y32R+H35C+I58K: no signal (0 of 3 replicates; controls 2 of 9).
F27I+Y32A+V64M: 3.47 (3 of 3 replicates; controls 1 of 9).
Y32H+A33R+H35P: no signal (0 of 3 replicates; controls 2 of 9).
Y32H+Y60S: 4.85 (2 of 3 replicates; controls 2 of 9).
Y32V+M34Q+S57W: no signal (0 of 3 replicates; controls 0 of 9).
F27N+Y32H+I58E: no signal (0 of 3 replicates; controls 0 of 9).
Y32E+I51P+Y108Q: 5.11 (1 of 3 replicates; controls 2 of 9).
Y32G+I51Y+Y108F: 3.60 (1 of 3 replicates; controls 2 of 9).
T28I+Y32Q+R101M: 1.83 (3 of 3 replicates; controls 5 of 9).
Y32F+S55T+G56H: 3.93 (2 of 3 replicates; controls 1 of 9).
F29W+Y32C+G102Y: 3.10 (3 of 3 replicates; controls 1 of 9).
T28Q+Y32K+M34T: 5.73 (1 of 3 replicates; controls 1 of 9).
Y32L+M34R+G100D: no signal (0 of 3 replicates; controls 1 of 9).
G26Y+Y32E+D107S: no signal (0 of 3 replicates; controls 1 of 9).
Y32A+G50E+G103A: no signal (0 of 3 replicates; controls 0 of 9).
Y32K+Y105K+Y108D: 5.06 (1 of 3 replicates; controls 0 of 9).
G26Y+Y32H+D62W: no signal (0 of 3 replicates; controls 1 of 9).
Y32M+G50K+F106W: no signal (0 of 3 replicates; controls 0 of 9).
Y32W+V99H+Y105S: 4.67 (1 of 3 replicates; controls 2 of 9).
Y32F+M34N+Y105I: 4.75 (2 of 3 replicates; controls 0 of 9).
T28G+D31G+Y32H: 5.05 (1 of 3 replicates; controls 3 of 9).
F27D+Y32L+S63E: 5.35 (1 of 3 replicates; controls 1 of 9).
Y32C+G50W+K65D: 4.83 (2 of 3 replicates; controls 6 of 9).
T28W+Y32W+S57M: 4.55 (3 of 3 replicates; controls 3 of 9).
G26I+D31A+Y32M: no signal (0 of 3 replicates; controls 1 of 9).
T28L+Y32P+Y60R: 5.22 (2 of 3 replicates; controls 2 of 9).

Again, the first 5 entries without any signal:

{"changes": "Y32D+S57E+G100R", "mean log10 Kd (nM)": "no signal", "replicates with signal": "0 of 3", "signal with controls": "0 of 9"}
{"changes": "Y32R+H35C+I58K", "mean log10 Kd (nM)": "no signal", "replicates with signal": "0 of 3", "signal with controls": "2 of 9"}
{"changes": "Y32H+A33R+H35P", "mean log10 Kd (nM)": "no signal", "replicates with signal": "0 of 3", "signal with controls": "2 of 9"}
{"changes": "Y32V+M34Q+S57W", "mean log10 Kd (nM)": "no signal", "replicates with signal": "0 of 3", "signal with controls": "0 of 9"}
{"changes": "F27N+Y32H+I58E", "mean log10 Kd (nM)": "no signal", "replicates with signal": "0 of 3", "signal with controls": "0 of 9"}

In this assay the parent's reference entry averaged 1.86; its copy inside this library read 0.88.